# In patent US20070287718A1 (priority 2003, published 2007):
# Sequences of proteins named here, by UniProt entry; tags and fusion partners are left off.
# UniProt P50613, whole entry, species assumed: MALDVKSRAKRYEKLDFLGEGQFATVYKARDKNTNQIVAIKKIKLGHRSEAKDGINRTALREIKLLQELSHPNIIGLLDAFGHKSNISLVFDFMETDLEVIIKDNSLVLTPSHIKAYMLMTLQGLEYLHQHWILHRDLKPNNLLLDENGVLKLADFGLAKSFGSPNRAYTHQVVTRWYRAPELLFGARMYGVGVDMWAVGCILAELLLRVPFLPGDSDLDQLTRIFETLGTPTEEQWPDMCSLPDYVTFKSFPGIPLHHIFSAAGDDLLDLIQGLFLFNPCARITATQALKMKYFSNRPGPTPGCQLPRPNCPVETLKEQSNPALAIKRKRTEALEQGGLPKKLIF
# Assays:
# XG6 = conditions: XG6, 25 μM of CYC202, two days
# MDN = conditions: 25 μM of CYC202, two days
# XG1 = conditions: XG1, 25 μM of CYC202, two days
# CDK7/cyclin H = CDK7/cyclin H (Homo sapiens, UniProt P50613); conditions: CDK7/CyclinH/Mat 1 (McClue et al., 2002); cited from earlier work
Compound,inhibition of myeloma cell proliferation (XG6),inhibition of myeloma cell proliferation (MDN),inhibition of myeloma cell proliferation (XG1),inhibition in vitro (CDK7/cyclin H)
"CC[C@H](CO)Nc1nc(NCc2ccccc2)c2ncn(C(C)C)c2n1 (single isomer, unassigned) [CYC202, 2-(1-R-hydroxymethylpropylamino)-6-benzylamino-9-isopurine]",total inhibition,total inhibition,total inhibition,
"CC[C@H](CO)Nc1nc(NCc2ccccc2)c2ncn(C(C)C)c2n1 (racemic) [roscovitine, 2-[(1-ethyl-2-hydroxyethyl)amino]-6-benzylamine-9-isopropylpurine]",,,,low μM concentrations
